## Ab-14 heavy chain CDR variants: yeast mating affinities

Target: peptide PDVDLGDISGINAS, taken from heptad repeat 2 (HR2) of SARS-CoV-2 spike.

Parent scFv Ab-14: VH joined to VL by a (GGGGS)3 linker. Changes lie in the heavy chain CDRs alone.
VH: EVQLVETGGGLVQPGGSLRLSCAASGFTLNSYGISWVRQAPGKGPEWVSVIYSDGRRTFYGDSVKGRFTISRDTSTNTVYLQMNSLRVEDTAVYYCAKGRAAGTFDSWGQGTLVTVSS
VL: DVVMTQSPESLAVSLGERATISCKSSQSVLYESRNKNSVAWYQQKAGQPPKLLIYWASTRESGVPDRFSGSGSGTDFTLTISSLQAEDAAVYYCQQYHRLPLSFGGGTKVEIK

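The starting antibody came from a phage panning campaign against this peptide. This is the validation round: designs drawn from the data on random variants, tested in the same kind of assay. Group labels follow the data file (Ctrl: baseline library sampled from a position-specific scoring matrix, with some repeated check sequences; Rand: our label for a block that the file lists under HC and that is probably the random mutants of the ten best first-round binders; En: ensemble of fine-tuned language models; GP: Gaussian process model; GPLM: also part of the Gaussian process libraries; HC: hill climbing; Gen: genetic algorithm; Gibbs: Gibbs sampling; a sequence that several methods proposed may carry one label only). In AlphaSeq, yeast of one mating type display the scFv and yeast of the other type display the target. The frequency of each diploid, read from paired DNA barcodes, reflects how well the two displayed proteins bind. A regression on co-assayed BCL2-family reference pairs converts the normalised counts of each replicate to an apparent Kd. Mating was done six times.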

Variants are written as CDR1, CDR2 and CDR3 of the heavy chain (limits as in the source). Parent: GFTLNSYGIS, VIYSDGRRTFYGDSVK, GRAAGTFDS. Affinities are written as log10 Kd with Kd in nM; a lower number is a better binder. Averages over replicates are reported, and they cover detected replicates only. "nd" marks a missing value. The strain was present, yet no cells mated with the target were sequenced in any replicate, which points to weak or no binding. Background: pairings of all heavy chain designs with three empty control strains gave a value in 1% of cases (median 2.08, 5th percentile 0.84). Values in that range, when seen in few replicates, are hard to tell from nonspecific mating.

CDR-H1	CDR-H2	CDR-H3	group	mean log10 Kd (nM)	seen in
GTTLNSYGIS	VIYSDGRTTFYGDSVE	GRAAGTFDS	Ctrl	2.61	1/6
GFTLDSYGIS	VIVSDGRRTFYGDSVK	GRAAGTATS	Rand	nd	0/6
GFQLNEYGIS	VIYSDGRRTFYGDSVK	GQAAGTFDV	GP_Gen	1.08	6/6
GFDLNEYGIS	VIYADGMRTFYADSVK	GSNAGTFDV	En_Gen	0.62	4/6
GFDVDKYGIS	VIYADGRRKFYQNQFK	GGQAGTFVN	En_Gibbs	nd	0/6
GFDLNEYGIS	VIYADGQRTAYSDSVK	GTNAGTFDV	En_Gen	-0.98	6/6
GFTLKSYGIS	VIYSDGRRTFYDDSVK	GRLAGTFDS	GP_HC	1.89	2/6
GFDLNEYGIS	VIYADGRRTFYADSVK	GQNAGTFDS	En_HC	-1.46	6/6
GFALNSYGIS	VIYADGRRTFYGDSVK	GEAAGTFDS	GPLM_Gen	-0.23	6/6
GFTLNDYGIS	VIYSDGRRTQYIKSVK	GRAAGTFDS	Rand	nd	0/6
GFTLNEYGIS	VIYSDGRRTFYGESVK	GRAAVTFDG	GP_HC	nd	0/6
GFTLNSYGIS	VIYSDGRRTFYSDSVK	GSAAGTFDK	GPLM_HC	0.52	6/6
GFDLNEYGIS	VIYADGSRTAYADDVK	GNQAGTFDV	En_Gen	-0.35	6/6
GFTLNSYGIS	VIYSDGRRTFYTDSVK	GAEAGTFDS	GP_HC	0.04	6/6
GFDLNEYGIS	VIYADGMRTFYTDSVK	GEVAGTFDI	En_HC	-0.67	6/6
HFNLNSYGIS	VIYSDGRRTFYADSVK	GRTAGTFDS	GPLM_Gen	0.38	6/6
GFDLNEYGIS	VIYADGRRTQYIDSVK	GEIAGTFDI	En_HC	-0.15	6/6
GFQLNEYGIS	VIYSDGRRTFYGDSVK	GNAAGTFDS	GPLM_Gen	0.19	6/6
KFQLNSYGIS	VIYSDGRRTFYIDSVK	GQTAGTFDS	GP_Gibbs	nd	0/6
GFNLNSYGIS	VIYSDGRRTFYGDDVK	GEAAGTFDR	GP_Gibbs	1.51	5/6
GFNLNEYGIS	VIYADGRRTFYADSVK	GEIAGTFDE	En_HC	0.09	6/6
GFDLNSYGIS	VIYSDGRRTFYGDSVK	GAEAGTFDS	GP_Gen	0.29	6/6
GFWLNEYGIS	VIYSDGRRTFYGDSVK	GRTAGTFDT	GP_Gen	0.81	6/6
GDNLDEYGIS	VIYADGQRTAYDDPVK	GGQTGTVMV	En_Gibbs	nd	0/6
GFDLNEYGIS	VIYADGQRTYYADSVK	GENAGTFDI	En_Gen	1.13	4/6
GFALNDYGIS	VIYSDGRRTFYGDSVK	GSAAGTFDS	GP_HC	nd	0/6
GKDLNEYGIS	VIYADGIRVMYQNQVK	GNINGSFTF	En_Gibbs	nd	0/6
GATLSQYGIS	VWYSDGWRTFYSDSVK	GRAAGFFRS	Rand	nd	0/6
GFDLDEYGIS	VIYADGKRTAYADDVK	GENAGTFDV	En_Gen	-0.17	6/6
GFDLDEYGIS	VIYADGMRTAYADDVK	GNVAGTFDI	En_Gen	-0.38	6/6
GFDLNEYGIS	VIYADGKRTAYANSVK	GNQAGTFDV	En_Gen	-0.53	6/6
GFDLGEYGIS	VIYADGMRSAYTDKVK	GKGANIVKH	En_Gibbs	nd	0/6
GFTLNSYGIS	VIYSDGRRTFYGDSVK	GRAAGTFES	Ctrl	nd	0/6
GFTLNNYGIS	VIYSDGRRTFYSDSVK	GRQAGTFDS	GP_HC	nd	0/6
GFTLDSYGIS	VIYSDGRRTFYGDSVK	GRAAGTFRD	GPLM_HC	1.63	6/6
GFTLNDHGIS	VIYSDGRRTFYGDSVK	GRMAGTPDS	Ctrl	nd	0/6
GFDLNSYGIS	VIYSDGMRTFYGDSVK	GRTAGTFDE	GP_Gibbs	-0.82	6/6
GFDLNEYGIS	VIYADGKRTSYADSVK	GNVAGTFDV	En_Gen	-0.54	2/6
GFDLNEYGIS	VIYADGRRTFYADNVK	GEVAGTFSV	En_HC	-0.24	6/6
GFELNNYGIS	VIYSDGRRTFYGDSVK	GRHAGTFDT	GP_Gibbs	0.97	6/6
GFSLNNYGIS	VIYSDGRRTFYDDSVK	GQLAGTFDS	GP_HC	1.02	6/6
GFTLNSYGIS	VIYSDGRRTFYVDSVK	GKAAGTFDV	Ctrl	0.75	1/6
GFTLNSYGIS	VIYSDGRRTFYGDSVK	GRNKGTFDS	Ctrl	nd	0/6
GFDLNEYGIS	VIYADGMRKFYADSVK	GQNAGTFDV	En_Gen	-0.49	6/6
GFDLNEYGIS	VIYADGMRTAYAEDVK	GENAGTFDV	En_Gen	0.38	6/6
GFSLNSYGIS	VIYSDGRRTFYGDAVK	GRTAGTFWS	GP_Gibbs	nd	0/6
GFNLNSYGIS	VIYSDGRRTFYGDNVK	GMQAGTFDS	GP_Gibbs	0.93	6/6
SFSLNSYGIS	VIYSDGRRTFYSDSVK	GEAAGTFDS	GPLM_Gen	1.10	5/6
GFTLNSYGIS	VIYSDGRRTFYIDNVK	GRRAGTFDS	Ctrl	nd	0/6
KFDLNEYGIS	VIYSDGRRTMYGDSVK	GRTAGTFDS	GP_Gibbs	0.05	6/6
GFDLNEYGIS	VIYADGVRTMYADSVK	GENAGTFDV	En_Gen	0.37	6/6
GFDLNEYGIS	VIYADGMRTAYADSVK	GEAAGTFDV	En_Gen	-0.28	6/6
GFTLNSYGIS	VIYSDGYRTMYGDSVK	GRAAGTFDS	Ctrl	nd	0/6
GFTLNAYGIS	VIYSDGRRTFYGDSVK	GRAAVTFDQ	GPLM_HC	nd	0/6
GFDINEYGIS	VMYADGSRVVYRDNVK	GFWGGTFDM	En_Gibbs	nd	0/6
GFTLNSYGIS	VIYSDGKRTMYGDSVK	GRAAGFFDS	Ctrl	3.88	1/6
GFTLNSYGIS	VIYSDGKRTFYADSVK	GNAAGTFDS	GPLM_Gibbs	nd	0/6
GFDLEEYGIS	VIYADGRRTFYSDSVK	GEAAGTFDQ	En_HC	-0.04	6/6
GFDLEDYGIS	VIYADGMRTAYADSVK	GTNAGTFDV	En_Gen	-0.39	6/6
GFDLNEYGIS	VIYADGMRTFYADSVK	GNVAGTFDM	En_Gen	-0.19	6/6
GFTLNEYGIS	VIYADGRRVFYGDSVK	GRAAGTFDT	Ctrl	0.61	6/6
GFTLNEYGIS	VIYSDGRRTFYGDSVR	GREAGTIDV	Ctrl	nd	0/6
GFWLNSYGIS	VIYADGRRTFYGDSVK	GEAAGTFDS	GPLM_Gibbs	0.66	3/6

Excerpt, the final 7 entries:

| CDR-H1 | CDR-H2 | CDR-H3 | group | mean log10 Kd (nM) | seen in |
|---|---|---|---|---|---|
| GFTLNSYGIS | VIYSDGKRTFYADSVK | GNAAGTFDS | GPLM_Gibbs | nd | 0/6 |
| GFDLEEYGIS | VIYADGRRTFYSDSVK | GEAAGTFDQ | En_HC | -0.04 | 6/6 |
| GFDLEDYGIS | VIYADGMRTAYADSVK | GTNAGTFDV | En_Gen | -0.39 | 6/6 |
| GFDLNEYGIS | VIYADGMRTFYADSVK | GNVAGTFDM | En_Gen | -0.19 | 6/6 |
| GFTLNEYGIS | VIYADGRRVFYGDSVK | GRAAGTFDT | Ctrl | 0.61 | 6/6 |
| GFTLNEYGIS | VIYSDGRRTFYGDSVR | GREAGTIDV | Ctrl | nd | 0/6 |
| GFWLNSYGIS | VIYADGRRTFYGDSVK | GEAAGTFDS | GPLM_Gibbs | 0.66 | 3/6 |

The authors averaged sequences with at least three values out of six and counted those with two or fewer as poor binders. Values of this round are not directly comparable with the first-round values of the same sequences.

The measurements come from Li et al. 2023 (doi:10.1038/s41467-023-39022-2) through the FLAb antibody collection.